Values of other authors in patent US20190144909A1, “METHODS OF MODULATING BCKDH” (NESTEC S.A., priority 2016, published 2019).
Some compounds may have been tested in ways that are not shown here.

Assays:
[1] = system: branched-chain alpha-keto acid dehydrogenase E1 B subunit (BCKDHB); settings: Table 1a, from Comparative Toxicogenomics Database
[2] = system: branched-chain alpha-keto acid dehydrogenase E1 A subunit (BCKDHA); settings: Table 1b, from Comparative Toxicogenomics Database

Cc1ccc([N+](=O)[O-])cc1[N+](=O)[O-]
Interaction Actions [1]: affects expression
Interaction Actions [2]: affects expression
